Assay results from patent US20140377365A1, “SUSTAINED-RELEASE FORMULATION OF ROTIGOTINE” (MAP Pharmaceuticals, Inc., priority 2013, published 2014).

Assay: In situ rotigotine salt screening (precipitate formation in ethanol/HFA 227 solution formulation)
Assay type: physicochemical
Conditions: 1 mg/mL rotigotine free base plus acid in 10% (w/w) ethanol in HFA 227; immediately upon preparation
Method: Rotigotine, bulk drug substance, was purchased from Chemagis (Perrigo API). A stock solution of rotigotine was prepared by dissolving rotigotine particles in ethanol at 10 mg/mL. With 1.5 mL rotigotine stock solution added to formulation bottles, each formulation bottle contained 15 mg rotigotine. For preparation of acid stock solutions, it was assumed that complete reaction or ion-pairing between rotigotine and acid. Based on the molecular weight and number of anions of each acid as listed in Table 1, acids stock solutions were prepared by dissolving the required amount in ethanol.
Each formulation bottle was filed with 1.5 mL of rotigotine stock solution and 1.0 ml, of acid stock solution. The formulation bottles (PET bottles) were then sealed with continuous valves and vortexed for 30 seconds to mix the solution well. Finally, 17.6 g of 1,1,1,2,3,3,3-heptafluoropropane (HFA227 (Mexichem)) to make a final volume of 15 mL of rotigotine formulation. All the bottles were hand shaken for 10 seconds.
All in situ salt screening samples were made as 1 mg/mL of rotigtine free base in 10% (w/w) ethanol in HFA 227. Acids corresponding to the salt forms in Table 1 were added according to the molar ratio with rotigotine for complete reaction. As 1 mg/mL was the minimal required dose at the time of experiment, all formulations were tested at this level to screen out non-solution salt formulations. […]

With Succinate the “Observation, Immediate” value was “white precipitate”.
